Laboratory results as given in patent publication US11702429B2, “mTORC modulators and uses thereof” (Aeovian Pharmaceuticals, Inc., priority 2019, dated 2023).

How the values were obtained:
mTORC1 = mTORC1 (Homo sapiens, UniProt P42345+P62942); experiment: Inhibition assay for mTORC1: phosphorylation of pS6K at Thr389, AlphaLISA in PC3 cells; assay type: cell-based
mTORC2 = mTORC2 (Homo sapiens, UniProt P42345+P62942); experiment: Inhibition assay for mTORC2: phosphorylation of pAkt at Ser473, AlphaLISA in PC3 cells; assay type: cell-based
[1] = Rapamycin analogs substituted at C40, pS6K Thr389, PC3 cells, 24 hours treatment
[2] = Rapamycin analogs substituted at C40, pAkt Ser473, PC3 cells, 24 hours treatment
[3] = PC3 cells, treated 24 hours, pS6K Thr389, AlphaLISA, C16 diastereomer mixtures not separated
[4] = PC3 cells, treated 24 hours, pAkt Ser473, AlphaLISA, C16 diastereomer mixtures not separated

| SMILES | pIC50 mTORC1 (mTORC1; [1]) | pIC50 mTORC2 (mTORC2; [2]) | pIC50 mTORC1 (mTORC1; [3]) | pIC50 mTORC2 (mTORC2; [4]) |
| --- | --- | --- | --- | --- |
| COC1C[C@@H]2CC[C@@H](C)[C@@](O)(O2)C(=O)C(=O)N2CCCC[C@H]2C(=O)O[C@H]([C@H](C)C[C@@H]2CC[C@@H](OC(=O)NCCCc3ccccc3)[C@H](OC)C2)CC(=O)[C@H](C)/C=C(\C)[C@@H](O)[C@@H](OC)C(=O)[C@H](C)C[C@H](C)/C=C/C=C/C=C/1C (stereo partly shown) | A (pIC50 for mTORC1 of >9.5 as A) | C (greater than 6 as C) |  |  |
| CO[C@@H]1C[C@H](C[C@@H](C)[C@@H]2CC(=O)[C@H](C)/C=C(\C)[C@@H](O)[C@@H](OC)C(=O)[C@H](C)C[C@H](C)/C=C/C=C/C=C(\C)C(OCC3CCOCC3)C[C@@H]3CC[C@@H](C)[C@@](O)(O3)C(=O)C(=O)N3CCCC[C@H]3C(=O)O2)CC[C@H]1OCCCO (stereo partly shown) |  |  | A (pIC50 for mTORC1 of >9.5 as A) | B (5 to 6 as B) |
| COC1C[C@@H]2CC[C@@H](C)[C@@](O)(O2)C(=O)C(=O)N2CCCC[C@H]2C(=O)O[C@H]([C@H](C)C[C@@H]2CC[C@@H](OCCCN3CCC[C@@H](O)C3)[C@H](OC)C2)CC(=O)[C@H](C)/C=C(\C)[C@@H](O)[C@@H](OC)C(=O)[C@H](C)C[C@H](C)/C=C/C=C/C=C/1C (stereo partly shown) | A (pIC50 for mTORC1 of >9.5 as A) | C (greater than 6 as C) |  |  |
| COC1CC2CCC(C)C(O)(O2)C(=O)C(=O)N2CCCCC2C(=O)OC(C(C)CC2CCC(OC(=O)C(C)(CO)CO)C(OC)C2)CC(=O)C(C)C=C(C)C(O)C(OC)C(=O)C(C)CC(C)C=CC=CC=C1C (stereo not shown) | A (pIC50 for mTORC1 of >9.5 as A) | C (greater than 6 as C) |  |  |
| CO[C@@H]1C[C@H](C[C@@H](C)[C@@H]2CC(=O)[C@H](C)/C=C(\C)[C@@H](O)[C@@H](OC)C(=O)[C@H](C)C[C@H](C)/C=C/C=C/C=C(\C)C(OCCc3ccccc3)C[C@@H]3CC[C@@H](C)[C@@](O)(O3)C(=O)C(=O)N3CCCC[C@H]3C(=O)O2)CC[C@H]1OC(=O)NCCOCCOCCOCCOCCO (stereo partly shown) |  |  | A (pIC50 for mTORC1 of >9.5 as A) | C (greater than 6 as C) |

Further lines, results first:

| pIC50 mTORC1 (mTORC1; [1]) | pIC50 mTORC2 (mTORC2; [2]) | pIC50 mTORC1 (mTORC1; [3]) | pIC50 mTORC2 (mTORC2; [4]) | SMILES |
| --- | --- | --- | --- | --- |
| A (pIC50 for mTORC1 of >9.5 as A) | C (greater than 6 as C) |  |  | COC1C[C@@H]2CC[C@@H](C)[C@@](O)(O2)C(=O)C(=O)N2CCCC[C@H]2C(=O)O[C@H]([C@H](C)C[C@@H]2CC[C@@H](OCCOCCOCCOCCO)[C@H](OC)C2)CC(=O)[C@H](C)/C=C(\C)[C@@H](O)[C@@H](OC)C(=O)[C@H](C)C[C@H](C)/C=C/C=C/C=C/1C (stereo partly shown) |
|  |  | B (8.5 to 9.5 as B) | A (PIC50 for mTORC2 of <5 as A) | CO[C@@H]1C[C@H](C[C@@H](C)[C@@H]2CC(=O)[C@H](C)/C=C(\C)[C@@H](O)[C@@H](OC)C(=O)[C@H](C)C[C@H](C)/C=C/C=C/C=C(\C)C(OC[C@@H](C)O)C[C@@H]3CC[C@@H](C)[C@@](O)(O3)C(=O)C(=O)N3CCCC[C@H]3C(=O)O2)CC[C@H]1OCCCO (stereo partly shown) |
|  |  | A (pIC50 for mTORC1 of >9.5 as A) | A (PIC50 for mTORC2 of <5 as A) | CO[C@@H]1C[C@H](C[C@@H](C)[C@@H]2CC(=O)[C@H](C)/C=C(\C)[C@@H](O)[C@@H](OC)C(=O)[C@H](C)C[C@H](C)/C=C/C=C/C=C(\C)C(OCCCO)C[C@@H]3CC[C@@H](C)[C@@](O)(O3)C(=O)C(=O)N3CCCC[C@H]3C(=O)O2)CC[C@H]1OCCCO (stereo partly shown) |
